The target of this assay is GLP-1 receptor (GLP-1R) on rat insulinoma RINm5F cells (rat (RINm5F rat insulinoma cells)) (UniProt P32301). As to the kind of experiment: cell-based or functional assay.

“Exendin-4 (from UniProt P26349) (peptide)” registered an intracellular cAMP level in rat insulinoma RINm5F cells (Lance cAMP 384 kit), IC50 of 1 nM.

For the origin of these results see patent US20120244080A1 (GEORGIA STATE UNIVERSITY RESEARCH FOUNDATION, published 2012).
